Earlier results as cited in US20120052135A1, “Phosphate Adsorbent” (VIFOR (INTERNATIONAL) AG, priority 2009, published 2012).

Conditions: haemodialysis patients, oral iron salts

For ferrous sulphate, the “absorption rate of iron” value is listed as “approximately 1%”.
